In ChEMBL document CHEMBL4813911 (J Med Chem, 2020) one finds IC50 data, which are given here for 2 compounds.

Chains of the proteins cited; added tags and fusions are not shown.
UniProt P21397, whole entry: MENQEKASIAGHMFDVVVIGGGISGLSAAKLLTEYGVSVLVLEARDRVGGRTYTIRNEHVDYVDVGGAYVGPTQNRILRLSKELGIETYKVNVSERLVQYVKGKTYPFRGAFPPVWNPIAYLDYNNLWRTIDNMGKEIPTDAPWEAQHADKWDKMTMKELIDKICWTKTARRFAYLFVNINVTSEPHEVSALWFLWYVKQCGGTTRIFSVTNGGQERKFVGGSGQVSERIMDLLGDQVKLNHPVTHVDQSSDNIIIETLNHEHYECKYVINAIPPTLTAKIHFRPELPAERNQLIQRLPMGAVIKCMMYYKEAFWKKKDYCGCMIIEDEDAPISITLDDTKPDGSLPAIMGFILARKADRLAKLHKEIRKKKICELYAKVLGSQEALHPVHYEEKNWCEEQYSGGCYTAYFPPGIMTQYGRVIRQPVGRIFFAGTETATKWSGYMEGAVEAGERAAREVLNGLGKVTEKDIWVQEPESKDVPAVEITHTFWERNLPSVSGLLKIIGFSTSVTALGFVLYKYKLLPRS

Some results are limits rather than exact numbers.

This test concerns the target Amine oxidase [flavin-containing] A (Homo sapiens, UniProt P21397). As to the kind of experiment: Inhibition of human MAO-A expressed in baculovirus infected BTI insect cells by fluorescence method.

Turning to `NC1CC12CCc1ccccc12` (stereo in doubt; 32), the IC50 (commonly the concentration needed to halve the response being measured) is greater than 100 µM.
Where the note is “bti”, `NC1CC12CCc1ccccc12` (stereo in doubt; 33) displayed an IC50 greater than 100 µM.
